## Binding of CDR-mutated scFvs to a peptide of the spike HR2 region

All variants were tested on one target, the spike HR2 peptide PDVDLGDISGINAS (SARS-CoV-2).

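Phage display of a naive human antibody library on the peptide gave the parent. Library AAYL52 holds single substitutions and randomly drawn double and triple substitutions in the CDRs. AlphaSeq pools MATa yeast showing the antibodies with MATalpha yeast showing the peptide. Binding brings cells together so that they mate, and sequencing counts the barcode pairs among the diploids. The ratio of observed to expected reads was calibrated, replicate by replicate, on BCL2-family standards whose Kd was known from biolayer interferometry. Mating was done three times.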

Parent scFv Ab-95: VH joined to VL by the linker GGGGSGGGGSGGGGS. Changes lie in the light chain CDRs alone.
VH: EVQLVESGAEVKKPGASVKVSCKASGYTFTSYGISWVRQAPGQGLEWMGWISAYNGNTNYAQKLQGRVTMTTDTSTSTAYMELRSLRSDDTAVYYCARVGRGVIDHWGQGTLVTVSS
VL: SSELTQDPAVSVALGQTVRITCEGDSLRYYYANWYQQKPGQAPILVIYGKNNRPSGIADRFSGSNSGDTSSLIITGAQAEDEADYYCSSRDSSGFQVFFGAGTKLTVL

The parent's light chain CDRs are EGDSLRYYYAN, GKNNRPS, SSRDSSGFQVF; each variant's own CDRs replace them letter for letter.
Values are log10 of the apparent Kd in nM; lower means stronger binding.
"nd" marks a missing value. The strain was present, yet no cells mated with the target were sequenced in that replicate, which points to weak or no binding.
Background: pairings of library AAYL52 with three empty control strains gave a value in 28% of cases (median 3.91, 5th percentile 2.90). Values in that range, when seen in few replicates, are hard to tell from nonspecific mating. Also given: how often the same scFv was detected with the empty control strains.

EGLSLRWYYAN | GKNNRPS | SSRDSSGFKVF: 2.69, 2.36, 3.25 (controls 5 of 9).
EGWSLRYYYAN | GGNNRPS | SSRDSSAFQVF: 1.86, 2.23, 2.12 (controls 1 of 9).
EGDSLWYYYAN | GKNNRPS | SSCDSSHFQVF: 4.55, nd, nd (controls 1 of 9).
EGDSLRYYYFN | GKNNRPS | SSMDSSGFQVL: nd, nd, nd (controls 2 of 9).
EGDSLRYYYAN | GKNNRPS | SSEDSSWFQWF: 3.17, 2.90, 2.25 (controls 2 of 9).
ECDSLRYYYAN | GKNNRPS | SSRDSSGCQVW: nd, nd, nd (controls 1 of 9).
EGDSLRYYYLN | GKNSRPS | SSRDSSFFQVF: 3.64, 4.58, nd (controls 4 of 9).
EGDSLRYYYYN | GKNNRPL | SSRDSDGFQVF: 2.97, 2.48, 2.44 (controls 6 of 9).
EGDSLSYAYAN | GKLNRPS | SSRDSSGFQVF: 2.71, 2.70, 2.71 (controls 6 of 9).
EGDSSRYYYAN | GMNNRPS | SSGDSSGFQVF: nd, 4.55, nd (controls 1 of 9).
EGDSLRYYYAH | GKKNRPS | SIRDSSGFQVF: nd, nd, nd (controls 2 of 9).
WGDSLRYYTAN | GKNNRPS | SSRDSSGFQVF: 3.28, 3.63, 2.89 (controls 2 of 9).
EGDSLMYYYAN | GLNNRPS | SSRDSSGFQVF: 3.26, 3.53, 3.69 (controls 6 of 9).
VGDSLRYWYAN | GKNNRPS | SSRDSSGVQVF: 3.40, 3.10, 2.58 (controls 3 of 9).
EGDSLRYYYAN | GKNNRPS | VSRDNSGFNVF: nd, nd, 1.97 (controls 0 of 9).
EGDSLRYYYAN | GKRNRES | SSRDSSGFQGF: nd, 3.02, 3.86 (controls 1 of 9).
EGDSLFYYYAN | GKNNRPS | SSRDSSGFQIF: 2.95, 3.24, 2.97 (controls 4 of 9).
EGDWLRYYYAN | GKNNRPS | SSRDSRGFQVF: 3.25, nd, 2.89 (controls 2 of 9).
EGDSLRRYYAN | GKNNRPS | TSRDSSGFQFF: 2.69, 2.73, 2.30 (controls 3 of 9).
EGDSLRYYCAN | GKNNRPS | SSLDSSGFQVM: 3.01, 2.54, 2.38 (controls 2 of 9).
EGDSLRYYYYN | GKNNRPS | SSRDGSTFQVF: nd, nd, nd (controls 1 of 9).
EFDSLKYYYAN | GKNNRPS | SSRDSSIFQVF: 3.25, 4.32, 2.97 (controls 1 of 9).
EGDSNRYYMAN | GKNNRPS | SSFDSSGFQVF: 3.30, 3.57, 2.69 (controls 1 of 9).
EGDSLRYYYAN | PKNNRPS | ESRDSSGRQVF: nd, nd, nd (controls 3 of 9).
EFDSLRYYYAL | GKNNRPS | SSRDSSGFQVF: 4.67, 3.90, nd (controls 2 of 9).
EGGSLRYYAAN | GKNNRPS | SSRDSSGFQGF: 2.97, 3.37, nd (controls 6 of 9).
EGDSLRYYYAN | GKNNRPS | PTRWSSGFQVF: 5.00, nd, nd (controls 3 of 9).
EGDSLRYYYAN | GKNNRPS | KFRPSSGFQVF: nd, nd, nd (controls 1 of 9).
EGDSERYYYAN | TKNNRPS | SSFDSSGFQVF: nd, nd, nd (controls 3 of 9).
EGDSLRYYYAN | GANPRPS | SSRDSSGFQVT: nd, 5.17, nd (controls 3 of 9).
EGDSLIYYYAN | GKNNRPS | SSNDSSGFQRF: 3.68, nd, 3.00 (controls 3 of 9).
ACDSLRYYYAN | GKNNRPS | SSRDSSGFQLF: 3.42, 3.08, 4.30 (controls 3 of 9).
EGDYLRYYYAN | GKNNRMP | SSRDSSGFQVF: 4.72, 2.68, 3.65 (controls 3 of 9).
EGDSLRYCYAN | GKENRPS | STRDSSGFQVF: 3.36, 3.29, 2.66 (controls 3 of 9).
EGDSLRYYYAN | GKNNRPS | SSRPSSGFQNF: 2.75, 2.21, 1.45 (controls 2 of 9).
EGDILRYYYAV | GKNNRPS | SMRDSSGFQVF: 4.49, nd, nd (controls 1 of 9).
EGDYLRYYYAN | GKNNRES | SSRDESGFQVF: 4.79, nd, nd (controls 1 of 9).

For reference, the parent read 2.31 as the reference entry and 2.25 as a member of this library.

Reference: Engelhart et al. 2022, doi:10.1038/s41597-022-01779-4. File: FLAb, binding data.